Experimental findings from ChEMBL document CHEMBL3826914, “Selective photodepletion of malignant T cells in extracorporeal photopheresis with selenorhodamine photosensitizers” (Bioorg Med Chem, 2016) are described below.

The data set concerns HuT78. Nature of the data set: Ratio of drug uptake in human HUT78 cells in presence of verapamil to drug uptake in human HUT78 cells in absence of verapamil at 2 x 10^-7M after 1 hr by flow cytometric analysis. The settings on record: hut78, 1 h, 0.2 µM. In general terms: A flow cytometer gives signals particle by particle.

As to `S=C(c1ccc(C2=c3cc4c5c(c3[Se]c3c2cc2c6c3CCCN6CCC2)CCC[N+]=5CCC4)s1)N1CCCCC1.[Cl-]`, the Ratio came out at 1.17.
For `O=C(c1ccc(C2=c3cc4c5c(c3[Se]c3c2cc2c6c3CCCN6CCC2)CCC[N+]=5CCC4)s1)N1CCCCC1.[Cl-]` the value was 1.13.
